Source: patent publication US20240287081A1, “PERFLUOROALKANE SUBSTITUTED PYRAZOLO[3,4-D]PYRIMIDIN AND PYRROLO[2,3-D]PYRIMIDIN COMPOUNDS AND USES THEREOF” (ICAHN SCHOOL OF MEDICINE AT MOUNT SINAI, priority 2021, published 2024)

The chains behind the UniProt entries cited, without tags or fusion partners. Residues count along the entry.
UniProt P07949, 724-1016 limits assumed: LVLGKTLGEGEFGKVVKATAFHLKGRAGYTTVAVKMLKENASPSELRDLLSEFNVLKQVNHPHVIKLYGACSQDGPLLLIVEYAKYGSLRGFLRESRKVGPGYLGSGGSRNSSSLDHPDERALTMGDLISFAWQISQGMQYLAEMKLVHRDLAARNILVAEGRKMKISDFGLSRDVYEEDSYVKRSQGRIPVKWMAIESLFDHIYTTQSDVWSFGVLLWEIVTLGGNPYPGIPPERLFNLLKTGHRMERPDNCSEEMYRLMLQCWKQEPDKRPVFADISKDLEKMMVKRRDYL

Assays:
[1] = molecular target: wild-type RET kinase domain (Homo sapiens, UniProt P07949); experiment: Wild-type RET Kd, bead based competition assay (KINOMEscan, DiscoverX); details: read-out: Kd towards wild-type RET; recombinant human wild-type RET kinase domain, average of two replicates
[2] = test system: MDCK; experiment: MDCK permeability assay; details: 5 μM
[3] = test system: Caco-2; experiment: Caco-2 permeability assay; details: 5 μM
[4] = test system: ptc>dRet^M955T flies; experiment: Fly rescue assay (Drosophila MTC model ptc>dRet^M955T); assay type: in vivo; details: compound in fly food
Procedure: Kinase-mutated fly stocks were obtained from Bloomington Drosophila Stock Center (BDSC; Bloomington, IN). The active mutant form of Drosophila Ret (dRet^955T) carries an M955T mutation corresponding to the M918T mutation commonly reported for multiple endocrine neoplasia (MEN) type 2B patients12,14,16,34. The ptc-gal4, UAS-GFP;UAS-dRet^M955T/SM5tub-gal80-TM6B transgenic flies were prepared according to standard protocols and crossed with non-transgenic w-flies (BDSC) to generate ptc-gal4, UAS-GFP; UAS-dRet^M955T(ptc>dRet^M955T) flies for chemical screening.
All drugs were synthesized in-house. All compounds were dissolved in DMSO (Sigma-Aldrich; St. Louis, MO) and mixed with semi-defined fly medium (BDSC) to make drug food (0.1% final DMSO concentration). For drug screening, ptc>dRet^M955T embryos were raised until adulthood on drug food for 13 d at 25° C. The number of empty pupal cases (i.e., adults) ? that of total pupal cases (P) to determine % viability. Fly randomization was used throughout the assays.
The initial libraries of perfluoroalkyl-analogs of sorafenib and regorafenib were screened in the Drosophila MTC model ptc>Ret^M955T (FIG. 4). In this model, compounds are assessed based on their ability to suppress oncogenic Ret^M955T-induced tumors, which can be quantified as ‘rescue’ from lethality. […]

[5] = 1 hour at 37° C., HBSS pH 7.4 both sides

| Compound | Kd [1] [nM] | influx/efflux ratio in MDCK [2, 5] | rates of influx and efflux in MDCK, in words ([2]; compared to APS-8-100-2 (40)) | influx/efflux ratio in Caco-2 [3, 5] | rates of influx and efflux in Caco-2, in words ([3]; compared to APS-8-100-2 (40)) | rescue activity in the fly model, in words [4] | rescue activity in the fly model, in words ([4]; listed as 36) |
| --- | --- | --- | --- | --- | --- | --- | --- |
| CCc1ccc(NC(=O)Nc2ccc(Oc3ccnc(C(=O)NC)c3)cc2F)cc1 | 1 | < 1 | much faster rates of influx and efflux | < 1 | much faster rates of influx and efflux |  |  |
| CNC(=O)c1cc(Oc2ccc(NC(=O)Nc3ccc(C(F)(F)C(F)(F)C(F)(F)F)cc3)c(F)c2)ccn1 | 25 |  |  |  |  |  |  |
| CNC(=O)c1cc(Oc2ccc(NC(=O)Nc3ccc(C(F)(C(F)(F)F)C(F)(F)F)cc3)c(F)c2)ccn1 | 27 |  |  |  |  | exceptional in vivo activity | surpassed the activity of previously described analog APS-6-45 (3) |
